Data on three compounds can be found in patent publication US20020192703A1, “Immunoassay reagents and methods for determination of LSD and LSD metabolites” (priority 1995, published 2002).

Experiment [1] has as its system Monoclonal antibody 19A7 specific for LSD. Briefly: Immunoaffinity extraction from urine with antibody 19A7 on Sepharose 4B. Particulars: immunoaffinity extract of urine analysed by HPLC/MS/MS.
Experiment [2] deals with LSD specific monoclonal antibody raised against the immunogen of Example 6. Briefly: CEDIA assay for LSD, dose response, antibody raised against immunogen of Example 6.
Experiment [3] relates to LSD specific monoclonal antibody raised against the immunogen of Example 4. Briefly: CEDIA assay for LSD, dose response, antibody raised against immunogen of Example 4. Conditions: for Rate: absorbance rate at 570 nm.
Where [4] appears, read: antibodies raised against conjugate of Example 4 or Example 6.

As to `CCN(CC)C(=O)[C@@H]1C=C2c3cc(O[C@@H]4O[C@H](C(=O)O)[C@@H](O)[C@H](O)[C@H]4O)cc4[nH]cc(c34)C[C@H]2N(C)C1` [13-hydroxy LSD glucuronide], in experiment [1], the “recognition by the 19A7 antibody” value is given as “recognizes”.

As for `CCN(CC)C(=O)[C@@H]1C=C2c3cccc4[nH]cc(c34)C[C@H]2N(C)C1` [LSD, lysergic acid diethylamide], the Rate in experiment [2] (LSD dose 0.3 ng/ml) worked out at 67.6 mAU/min; in experiment [2] (LSD dose 0.5 ng/ml), 69.9 mAU/min; in experiment [2] (LSD dose 0.8 ng/ml) it was 72.6 mAU/min; in experiment [2] (LSD dose 1.6 ng/ml), 80.8 mAU/min; in experiment [2] (LSD dose 4.0 ng/ml), 107.4 mAU/min; in experiment [3] (LSD dose 0.3 ng/ml), 132.2 mAU/min. The Rate in experiment [3] (LSD dose 0.5 ng/ml) is 145.0 mAU/min; in experiment [3] (LSD dose 0.7 ng/ml) it was 155.3 mAU/min; in experiment [3] (LSD dose 2.0 ng/ml) it was 207.0 mAU/min; in experiment [3] (LSD dose 4.0 ng/ml) it was 224.8 mAU/min; in experiment [3] (LSD dose 100 ng/ml) it was 228.7 mAU/min. Besides, in experiment [3] (setting [4]), the “LSD dose at which antibody binding of LSD-enzyme donor conjugates is detectably inhibitable” value is 0.3 ng/mL. In experiment [3] (setting [4]), the “LSD dose at which binding is inhibitable at about the 50% maximum level” value is given as “about 1 ng/mL”. Moreover, the “affinity of the antibodies for LSD” value in experiment [3] (calculated from effective concentrations of assay components, antibodies of Examples 9 and 10) is reported as “at least 10^10 M^−1”.

As to `CCN(CC)C(=O)[C@@H]1C=C2c3ccc(O[C@@H]4O[C@H](C(=O)O)[C@@H](O)[C@H](O)[C@H]4O)c4[nH]cc(c34)C[C@H]2N(C)C1` [14-hydroxy LSD glucuronide], in experiment [1], the “recognition by the 19A7 antibody” value was “recognizes”.
